The record followed here is patent publication US20110269758A1, “NAPHTHYRIDINONES AS PROTEIN KINASE INHIBITORS” (MERCK PATENT GMBH, priority 2008, published 2011).

Chains of the proteins cited; added tags and fusions are not shown.
UniProt O14965, whole entry: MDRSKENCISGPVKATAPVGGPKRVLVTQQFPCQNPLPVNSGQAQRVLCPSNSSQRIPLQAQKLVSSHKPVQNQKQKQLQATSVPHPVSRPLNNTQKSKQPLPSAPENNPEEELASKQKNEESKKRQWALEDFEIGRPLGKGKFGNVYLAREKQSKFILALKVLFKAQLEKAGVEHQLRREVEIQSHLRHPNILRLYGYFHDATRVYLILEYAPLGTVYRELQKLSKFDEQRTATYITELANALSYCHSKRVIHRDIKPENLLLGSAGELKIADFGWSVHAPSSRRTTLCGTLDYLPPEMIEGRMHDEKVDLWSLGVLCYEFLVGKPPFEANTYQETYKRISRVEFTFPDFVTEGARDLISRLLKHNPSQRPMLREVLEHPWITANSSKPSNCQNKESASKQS
UniProt Q96GD4, whole entry: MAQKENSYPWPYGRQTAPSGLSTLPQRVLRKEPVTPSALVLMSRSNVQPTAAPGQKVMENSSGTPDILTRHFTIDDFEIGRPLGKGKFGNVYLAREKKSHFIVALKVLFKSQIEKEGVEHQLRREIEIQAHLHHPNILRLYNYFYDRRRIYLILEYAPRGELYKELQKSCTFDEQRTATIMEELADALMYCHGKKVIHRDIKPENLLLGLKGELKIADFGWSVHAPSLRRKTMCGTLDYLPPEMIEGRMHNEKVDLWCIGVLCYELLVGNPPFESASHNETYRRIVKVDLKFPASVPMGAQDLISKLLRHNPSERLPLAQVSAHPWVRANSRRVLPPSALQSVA

One assay deals with Aurora Kinase A (Homo sapiens, UniProt O14965). The assay can be described thus: Biochemical enzyme assay for Aurora A activity (Caliper LC3000 / Desktop Profiler mobility shift). The settings on record: read-out: Aurora Kinase A IC50 in nM; GST-Aurora A, 15 μM ATP, 90 min at 25° C.; LC3000 or Desktop Profiler.
The next assay has as its target Aurora Kinase B (Homo sapiens, UniProt Q96GD4). The assay is described as follows: Biochemical enzyme assay for Aurora B activity (Caliper mobility shift). The settings on record: read-out: Aurora Kinase B IC50 in nM; LC3000 or Desktop Profiler. The protocol: The Aurora assays described here were performed on two Caliper Life Sciences systems, the LC3000 and the Desktop Profiler. These provide data on enzyme activity via measurement of the relative amounts of phosphorylated or unphosphorylated fluorescently labelled substrate peptide at the end of an enzymatic reaction. These different states of peptide are resolved by applying a potential difference across the sample. The presence of a charged phosphate group on the product (as opposed to the substrate) causes a different peptide mobility between the two peptides. This is visualized by excitation of a fluorescent label on the substrate and product peptides and represented as peaks within the analysis software.
The Desktop Profiler utilizes the same prinicipal as the LC 3000 for calculating percentage conversion of a substrate to product. Caliper Life Sciences provided proprietary flash frozen pre-made 384 well plates containing selected kinases. Each column in the 384 well plate contained a particular selected kinase. A second plate, the ‘substrate plate’ contained a mix of fluorescently labeled peptide substrate and ATP. These were arranged in columns so that transfer for substrate plate to enzyme plate provided the correct enzyme with the correct substrate/ATP concentration.
Compounds were added to a thawed enzyme plate in the desired format, in single concentrations. Reactions were initiated by transfer of the substrate/ATP mix from the substrate plate. The enzyme plate was incubated for 90 mins at 25° C. The reaction was stopped by addition of 70 μl of Stop Buffer (100 mM HEPES pH 7.5, 0.015% Brij-35, 10 mM EDTA (Sigma, E7889)).
Plates were read in a manner identical to that of the LC3000, and the ratio between substrate and product peaks provided the activity of the enzyme in that well. This was best represented by a plate heat map which colors each well by percent inhibition as compared to positive and negative controls (no inhibitors and no ATP respectively).

Broadly, the IC50 is the concentration that inhibits the measured activity by half. On to `CN(C)C1CCN(c2ccc3c(Nc4ccc(NC(=O)c5ccccc5)cc4)ccnc3n2)C1` (centres unmarked), for which, on Aurora Kinase A, the IC50 lay in the range of 1 to 300 nM.

With `Cc1ccccc1C(=O)Nc1ccc(Nc2ccnc3[nH]c(=O)ccc23)cc1`, the IC50 on Aurora Kinase B is 301 to 600 nM; at Aurora Kinase A, above 1000 nM.

Consider `O=C(Nc1ccc(Nc2ccnc3nc(OCCN4CCCC4)ccc23)cc1)c1ccccc1`, for which the IC50 at Aurora Kinase A is above 1000 nM.

`O=C(Nc1ccc(Nc2ccnc3[nH]c(=O)ccc23)cc1)c1cc(F)cc(C(F)(F)F)c1`: the half-inhibitory concentration (IC50) on Aurora Kinase A is above 1000 nM.

As for `Cc1ccc(C(=O)Nc2ccc(Nc3ccnc4[nH]c(=O)ccc34)cc2)cc1`, the IC50 at Aurora Kinase A is 1 to 300 nM.

Take `O=C(Nc1ccc(Nc2ccnc3[nH]c(=O)ccc23)cc1)c1c(Cl)cccc1Cl`: the IC50 on Aurora Kinase A lay within 1 to 300 nM.

With `O=C(Nc1ccc(Nc2ccnc3[nH]c(=O)ccc23)cc1)c1ccc(C(F)(F)F)cc1F`, the IC50 on Aurora Kinase A is above 1000 nM.

`Cc1cccc(C(=O)Nc2ccc(Nc3ccnc4[nH]c(=O)ccc34)cc2)c1`: the IC50 on Aurora Kinase B was 601 to 1000 nM; at Aurora Kinase A, above 1000 nM.

As for `O=C(Nc1ccc(Nc2ccnc3[nH]c(=O)ccc23)cc1)c1ccc(Cl)cc1`, the IC50 at Aurora Kinase A was above 1000 nM.

As for `O=C(Nc1ccc(Nc2ccnc3[nH]c(=O)ccc23)cc1)c1ccc(Cl)cc1Cl`, the IC50 at Aurora Kinase A is above 1000 nM.

Consider `O=C(Nc1ccc(Nc2ccnc3[nH]c(=O)ccc23)cc1)c1ccc(Cl)c(Cl)c1`, for which, on Aurora Kinase A, the IC50 is above 1000 nM.

`O=C(Nc1ccc(Nc2ccnc3nc(OCCN4CCOCC4)ccc23)cc1)c1ccccc1`: at Aurora Kinase A, the IC50 was in the range of 1 to 300 nM.

`O=C(Nc1ccc(Nc2ccnc3nc(OCCCN4CCOCC4)ccc23)cc1)c1ccccc1`: at Aurora Kinase A, the IC50 fell in the range of 1 to 300 nM.

In the case of `COc1ccccc1C(=O)Nc1ccc(Nc2ccnc3[nH]c(=O)ccc23)cc1`, the IC50 at Aurora Kinase B and at Aurora Kinase A was above 1000 nM in each case.
